Usually inhibition stands for the change of the read-out against control, counted positive when it falls.

Sequences of proteins named here, by UniProt entry; tags and fusion partners are left off.
UniProt Q96T88, whole entry: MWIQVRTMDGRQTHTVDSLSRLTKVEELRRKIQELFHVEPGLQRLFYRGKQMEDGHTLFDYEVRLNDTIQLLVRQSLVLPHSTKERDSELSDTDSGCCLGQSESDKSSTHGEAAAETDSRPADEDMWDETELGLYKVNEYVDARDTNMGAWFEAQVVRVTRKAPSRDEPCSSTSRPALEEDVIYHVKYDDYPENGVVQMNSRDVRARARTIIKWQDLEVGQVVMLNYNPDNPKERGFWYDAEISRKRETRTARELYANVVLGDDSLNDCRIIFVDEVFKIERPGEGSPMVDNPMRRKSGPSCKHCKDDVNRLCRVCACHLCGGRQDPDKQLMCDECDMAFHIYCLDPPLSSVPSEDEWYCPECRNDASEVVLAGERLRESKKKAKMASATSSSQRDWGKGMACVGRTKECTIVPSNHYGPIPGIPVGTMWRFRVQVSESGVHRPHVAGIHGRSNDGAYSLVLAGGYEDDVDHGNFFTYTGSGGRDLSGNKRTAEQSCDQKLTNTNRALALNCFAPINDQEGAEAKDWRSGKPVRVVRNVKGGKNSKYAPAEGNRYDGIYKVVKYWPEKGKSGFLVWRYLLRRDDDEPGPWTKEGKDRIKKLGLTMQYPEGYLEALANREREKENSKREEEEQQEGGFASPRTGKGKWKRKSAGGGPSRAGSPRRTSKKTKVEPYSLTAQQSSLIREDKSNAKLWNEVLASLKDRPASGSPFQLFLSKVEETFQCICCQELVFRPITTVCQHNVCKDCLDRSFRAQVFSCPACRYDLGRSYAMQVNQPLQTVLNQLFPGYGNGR

This is a selection; strong and weak results do not stand in their true shares. Activity calls are given as the source filed them. Rule as the data show it: active = inhibition above about 21%; inactive = the rest.

The target of this assay is E3 ubiquitin-protein ligase UHRF1 (Homo sapiens) (UniProt Q96T88). Put plainly: UHRF1 methylated DNA binding inhibitors, primary screen, counter-screen for MBD2 inhibitor project, biochemical, TR-FRET, human UHRF1, single concentration (AID 687016).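 Also: UHRF1 SRA domain binding a hemimethylated CpG hairpin DNA probe; 0% = median of test compound wells and 100% = reference inhibitor.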 Conditions: UHRF1 binding to methylated oligo, at 4.4 µM, hits give high values. On the technique in general: Counterscreens check selectivity or assay interference.
`CCC(=O)N(c1ccccc1)C1(COC)CCN(CCn2nnn(CC)c2=O)CC1`: the inhibition is inactive: 1.34%.
Turning to `CCC(=O)N(c1ccccc1)C1(COC)CCN(CCc2cccs2)CC1`, the inhibition was inactive: -1.96%.

The values above are taken from PubChem BioAssay AID687016 (The Scripps Research Institute Molecular Screening Center, 2013).
